The values that follow come from ChEMBL document CHEMBL1156930 (J Med Chem, 2010).

The target in the test is T1, Galanin receptor type 2 (Homo sapiens) (UniProt O43603).
T1 sequence (whole entry): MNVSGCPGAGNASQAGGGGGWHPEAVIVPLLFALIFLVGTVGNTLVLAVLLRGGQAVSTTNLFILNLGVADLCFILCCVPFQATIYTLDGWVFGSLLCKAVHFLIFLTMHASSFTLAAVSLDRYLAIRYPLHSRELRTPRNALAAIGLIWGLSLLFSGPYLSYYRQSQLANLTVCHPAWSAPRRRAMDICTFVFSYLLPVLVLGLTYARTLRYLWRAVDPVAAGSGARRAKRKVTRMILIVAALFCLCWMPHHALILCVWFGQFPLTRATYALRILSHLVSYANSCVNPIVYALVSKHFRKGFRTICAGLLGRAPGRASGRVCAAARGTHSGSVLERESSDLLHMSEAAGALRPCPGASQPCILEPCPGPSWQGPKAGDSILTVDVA
The test is classed as functional, cell-based. As to conditions: CHO-K1, 1.25 uM.

The molecule `CCCCCCCCCCCCCCCC(=O)NCCCC[C@H](NC(=O)[C@H](CCCCN)NC(=O)[C@H](CCCCN)NC(=O)[C@@H]1CCCN1C(=O)CNC(=O)[C@H](CC(C)C)NC(=O)[C@H](CC(C)C)NC(=O)[C@H](Cc1ccc(O)cc1)NC(=O)CNC(=O)[C@H](C)NC(=O)[C@H](CO)NC(=O)[C@H](CC(N)=O)NC(=O)[C@H](CC(C)C)NC(=O)[C@@H](NC(=O)[C@H](Cc1c[nH]c2ccccc12)NC)[C@@H](C)O)C(=O)N[C@@H](CCCCN)C(N)=O` displayed an Activity of 26%.
